Earlier results as cited in patent publication US5972958A, “4-aminoalkoxy-1,3-dihydro-benzoimidazol-2-thiones” (American Home Products Corporation, priority 1998, dated 1999).

System: β-adrenergic receptor
Conditions: J. Biol. Chem., 258, 3496-3502, 1983; cited from earlier work

## CC(C)(C)NCC(O)COc1cccc2[nH]c(=O)[nH]c12 (stereo not shown) [CGP-12177]
  β-adrenergic receptor antagonist activity: β-adrenergic receptor antagonist
